Test results published in ChEMBL document CHEMBL4038319, “Development of a Potent Inhibitor of the Plasmodium Proteasome with Reduced Mammalian Toxicity” (J Med Chem, 2017).

Protein sequences, listed by entry. Tags and fused reporters are not part of them. Lines headed by an entry give the natural chain unless they say otherwise; changes in a name come on top.
UniProt P28074: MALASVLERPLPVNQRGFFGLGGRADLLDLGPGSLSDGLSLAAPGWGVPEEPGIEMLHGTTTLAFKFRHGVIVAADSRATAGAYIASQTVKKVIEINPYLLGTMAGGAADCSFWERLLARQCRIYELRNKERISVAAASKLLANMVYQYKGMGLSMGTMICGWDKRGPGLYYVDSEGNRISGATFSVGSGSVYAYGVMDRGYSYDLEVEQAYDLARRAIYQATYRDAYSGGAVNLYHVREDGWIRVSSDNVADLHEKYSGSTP

Legend:
[1] = molecular target: 20S proteasome beta5 subunit (Proteasome Macropain subunit MB1) (Homo sapiens, UniProt P28074); experiment: Irreversible inhibition of human 20S proteasome beta5 subunit using suc-LLVY-AMC as substrate after 4 hrs at 30 mins time interval by fluorescence assay; conditions: probe suc-LLVY-AMC
[2] = molecular target: constitutive 20S proteasome beta5 subunit (Proteasome Macropain subunit MB1) (Homo sapiens, UniProt P28074); experiment: Ratio of kinact to Ki for human constitutive 20S proteasome beta5 subunit; format: ADME
[3] = test system: Plasmodium falciparum

SMILES	kinact at 4 h [1]	kinact/KI [2]	Kinact [3]
CCCCCC(=O)N[C@H](C(=O)N[C@@H](CCCC)C(=O)N[C@@H](CC(C)C)C(=O)[C@@]1(C)CO1)C(C)C	0.00562 s⁻¹	1500 M⁻¹ s⁻¹	1.76 ×10⁻³ /s
CCCCCC(=O)N[C@@H](C(=O)N[C@@H](CCCC)C(=O)N[C@@H](CC(C)C)C(=O)[C@@]1(C)CO1)C(C)C	0.00062 s⁻¹	15.8 M⁻¹ s⁻¹	5.88 ×10⁻⁵ /s
